The target of experiment [1] is RET V804M (Homo sapiens, UniProt P07949, V804M). Nature of the experiment: RET V804M biochemical assay. Conditions: wild-type RET inhibitors, Table 2.
Experiment [2] deals with T1, RET V804L (Homo sapiens, UniProt P07949, V804L).
T1 construct: purchased ProQinase 1096-0000-1
The experiment is described as follows: RET V804L Gatekeeper Mutant Assay at KM (Caliper electrophoretic mobility shift). Conditions: wild-type RET inhibitors, Table 2; read-out: RET V804L Biochemical IC50.

Chains of the proteins cited; added tags and fusions are not shown. Residues count along the entry.
UniProt P07949, 29-1114 V804M: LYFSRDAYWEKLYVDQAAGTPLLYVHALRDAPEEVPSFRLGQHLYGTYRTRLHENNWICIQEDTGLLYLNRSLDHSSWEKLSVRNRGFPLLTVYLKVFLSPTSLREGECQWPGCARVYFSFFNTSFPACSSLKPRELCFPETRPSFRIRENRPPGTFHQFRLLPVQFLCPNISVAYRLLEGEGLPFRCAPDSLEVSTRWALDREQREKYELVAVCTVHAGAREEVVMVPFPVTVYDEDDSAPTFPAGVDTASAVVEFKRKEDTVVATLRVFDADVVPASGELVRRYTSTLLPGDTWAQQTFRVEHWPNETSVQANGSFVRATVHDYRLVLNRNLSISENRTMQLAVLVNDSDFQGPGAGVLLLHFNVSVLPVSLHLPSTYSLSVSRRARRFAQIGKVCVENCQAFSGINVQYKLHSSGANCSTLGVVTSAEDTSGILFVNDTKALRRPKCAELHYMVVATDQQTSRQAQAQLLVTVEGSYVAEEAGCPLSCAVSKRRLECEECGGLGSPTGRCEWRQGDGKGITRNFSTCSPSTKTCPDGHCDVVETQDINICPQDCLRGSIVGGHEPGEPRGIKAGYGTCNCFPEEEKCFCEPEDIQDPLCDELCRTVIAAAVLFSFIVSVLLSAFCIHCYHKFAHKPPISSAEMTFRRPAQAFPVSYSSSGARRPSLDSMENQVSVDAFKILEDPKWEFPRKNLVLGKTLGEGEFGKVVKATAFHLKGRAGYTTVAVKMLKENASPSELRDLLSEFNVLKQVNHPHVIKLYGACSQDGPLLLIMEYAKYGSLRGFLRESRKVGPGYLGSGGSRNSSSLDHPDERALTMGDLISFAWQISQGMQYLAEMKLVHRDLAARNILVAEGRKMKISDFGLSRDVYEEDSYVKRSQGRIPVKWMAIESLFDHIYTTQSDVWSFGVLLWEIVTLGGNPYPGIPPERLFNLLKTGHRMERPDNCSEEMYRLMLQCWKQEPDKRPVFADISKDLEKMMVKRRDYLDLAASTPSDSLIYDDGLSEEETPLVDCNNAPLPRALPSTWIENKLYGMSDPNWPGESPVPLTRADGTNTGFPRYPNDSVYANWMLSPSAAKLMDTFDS
UniProt P07949, 29-1114 V804L: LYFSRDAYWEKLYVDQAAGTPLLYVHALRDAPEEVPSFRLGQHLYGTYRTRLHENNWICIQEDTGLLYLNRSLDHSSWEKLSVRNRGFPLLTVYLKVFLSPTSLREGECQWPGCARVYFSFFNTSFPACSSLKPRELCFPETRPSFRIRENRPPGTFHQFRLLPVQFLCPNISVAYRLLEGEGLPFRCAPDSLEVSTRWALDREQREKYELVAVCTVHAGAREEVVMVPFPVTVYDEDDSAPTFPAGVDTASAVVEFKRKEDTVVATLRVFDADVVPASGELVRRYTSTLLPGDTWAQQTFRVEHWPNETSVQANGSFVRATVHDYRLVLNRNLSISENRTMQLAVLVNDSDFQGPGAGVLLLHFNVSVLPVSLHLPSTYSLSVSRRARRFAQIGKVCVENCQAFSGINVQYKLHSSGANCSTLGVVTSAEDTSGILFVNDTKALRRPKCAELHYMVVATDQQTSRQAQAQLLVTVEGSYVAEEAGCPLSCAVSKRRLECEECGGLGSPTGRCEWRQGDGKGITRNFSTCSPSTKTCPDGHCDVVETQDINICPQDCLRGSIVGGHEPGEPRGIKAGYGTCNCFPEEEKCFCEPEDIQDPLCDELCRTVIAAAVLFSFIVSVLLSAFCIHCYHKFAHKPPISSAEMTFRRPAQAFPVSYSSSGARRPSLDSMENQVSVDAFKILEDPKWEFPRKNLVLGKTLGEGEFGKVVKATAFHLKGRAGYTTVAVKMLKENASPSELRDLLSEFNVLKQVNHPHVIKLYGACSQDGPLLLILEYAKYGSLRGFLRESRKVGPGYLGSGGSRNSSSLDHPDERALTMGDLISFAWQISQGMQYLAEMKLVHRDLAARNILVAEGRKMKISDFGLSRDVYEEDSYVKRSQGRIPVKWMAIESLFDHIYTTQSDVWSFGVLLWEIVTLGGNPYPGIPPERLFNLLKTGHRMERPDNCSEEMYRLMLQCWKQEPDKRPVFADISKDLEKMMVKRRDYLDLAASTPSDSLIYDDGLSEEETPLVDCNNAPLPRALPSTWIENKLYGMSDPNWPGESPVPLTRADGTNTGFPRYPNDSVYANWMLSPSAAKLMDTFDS
UniProt P07949, 29-1114: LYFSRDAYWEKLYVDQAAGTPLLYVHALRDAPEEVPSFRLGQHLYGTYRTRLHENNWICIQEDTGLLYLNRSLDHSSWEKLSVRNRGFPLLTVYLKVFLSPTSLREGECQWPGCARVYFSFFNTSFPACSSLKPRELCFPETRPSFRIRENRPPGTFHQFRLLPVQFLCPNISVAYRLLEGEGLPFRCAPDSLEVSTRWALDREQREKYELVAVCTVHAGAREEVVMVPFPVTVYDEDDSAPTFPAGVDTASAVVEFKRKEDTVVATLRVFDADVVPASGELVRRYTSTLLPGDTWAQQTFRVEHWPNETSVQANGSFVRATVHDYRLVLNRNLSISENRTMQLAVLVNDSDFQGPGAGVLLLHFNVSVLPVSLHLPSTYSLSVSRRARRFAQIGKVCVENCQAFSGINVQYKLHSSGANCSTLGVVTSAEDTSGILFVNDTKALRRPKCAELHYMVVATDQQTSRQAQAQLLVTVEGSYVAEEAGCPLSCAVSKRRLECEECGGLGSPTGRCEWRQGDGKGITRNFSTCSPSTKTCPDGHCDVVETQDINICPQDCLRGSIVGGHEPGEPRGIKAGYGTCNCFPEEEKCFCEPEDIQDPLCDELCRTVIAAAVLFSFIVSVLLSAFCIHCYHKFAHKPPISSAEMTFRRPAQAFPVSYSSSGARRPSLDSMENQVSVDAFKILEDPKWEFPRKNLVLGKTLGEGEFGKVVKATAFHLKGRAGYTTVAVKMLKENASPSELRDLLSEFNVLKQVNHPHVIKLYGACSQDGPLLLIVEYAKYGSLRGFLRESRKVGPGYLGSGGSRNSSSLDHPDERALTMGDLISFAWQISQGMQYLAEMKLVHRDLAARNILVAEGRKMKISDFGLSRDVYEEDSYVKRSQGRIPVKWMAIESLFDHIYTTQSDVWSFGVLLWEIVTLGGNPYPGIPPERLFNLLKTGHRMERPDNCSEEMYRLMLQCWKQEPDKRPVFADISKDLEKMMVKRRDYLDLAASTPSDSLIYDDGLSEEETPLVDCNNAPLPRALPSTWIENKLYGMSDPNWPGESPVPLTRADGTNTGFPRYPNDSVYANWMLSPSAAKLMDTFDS

Experiment [3] concerns the target T2, wild type RET (Homo sapiens, UniProt P07949).
T2 construct: purchased ProQinase 1090-0000-1
The experiment is described as follows: RET Wild Type Assay at KM (Caliper electrophoretic mobility shift). It counts as biochemical.

What is called IC50 is the concentration at which inhibition is half-maximal.

Regarding `CNC(=O)c1cc(Oc2ccc(NC(=O)Nc3ccc(Cl)c(C(F)(F)F)c3)c(F)c2)ccn1` [Regorafenib, reference compound], the figures for the IC50 in experiment [1], in experiment [2] and in experiment [3] were 0.0467 µM, 0.0298 µM and 0.0051 µM, respectively.

These data come from patent US10035789B2, “Compounds useful for treating disorders related to RET” (BLUEPRINT MEDICINES CORPORATION, priority 2016, dated 2018).
